Experimental data taken from US11364211B2, “Methods for selecting phosphatase selective and non-selective phosphatase inhibitors” (MEDICAL RESEARCH COUNCIL, priority 2015, dated 2022).

Sequences of proteins named here, by UniProt entry; tags and fusion partners are left off. Residues count along the entry.
UniProt P36873, whole entry: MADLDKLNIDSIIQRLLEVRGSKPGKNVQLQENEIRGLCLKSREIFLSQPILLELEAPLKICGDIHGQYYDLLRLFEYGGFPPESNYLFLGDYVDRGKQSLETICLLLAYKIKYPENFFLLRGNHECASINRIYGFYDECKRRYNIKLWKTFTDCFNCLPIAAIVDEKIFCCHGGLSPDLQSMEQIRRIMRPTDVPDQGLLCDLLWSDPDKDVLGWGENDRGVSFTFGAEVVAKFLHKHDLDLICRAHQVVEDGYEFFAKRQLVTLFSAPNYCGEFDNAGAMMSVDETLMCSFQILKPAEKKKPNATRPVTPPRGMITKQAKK
UniProt Q5SWA1, 340-698: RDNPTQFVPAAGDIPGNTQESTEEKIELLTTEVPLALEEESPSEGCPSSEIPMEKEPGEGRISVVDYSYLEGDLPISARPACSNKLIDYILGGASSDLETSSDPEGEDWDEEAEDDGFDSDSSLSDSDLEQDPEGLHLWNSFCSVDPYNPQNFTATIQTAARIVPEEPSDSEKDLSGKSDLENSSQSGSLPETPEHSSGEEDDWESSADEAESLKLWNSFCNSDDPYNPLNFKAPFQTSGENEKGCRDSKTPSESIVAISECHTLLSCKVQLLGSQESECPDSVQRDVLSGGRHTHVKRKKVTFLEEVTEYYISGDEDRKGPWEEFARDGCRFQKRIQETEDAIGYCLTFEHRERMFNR
UniProt O75807, 325-636: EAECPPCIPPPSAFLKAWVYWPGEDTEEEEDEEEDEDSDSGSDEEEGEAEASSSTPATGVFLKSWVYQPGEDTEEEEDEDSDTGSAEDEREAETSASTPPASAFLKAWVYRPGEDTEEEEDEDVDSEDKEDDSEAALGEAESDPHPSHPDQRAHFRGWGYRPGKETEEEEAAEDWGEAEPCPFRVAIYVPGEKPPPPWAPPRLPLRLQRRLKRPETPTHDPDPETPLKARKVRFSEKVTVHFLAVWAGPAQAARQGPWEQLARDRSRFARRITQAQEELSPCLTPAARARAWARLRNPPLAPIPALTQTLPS

How the values were obtained:
PP1c [1] = biological target: T1, PP1c (Homo sapiens, UniProt P36873); assay: PP1c catalytic activity assay (EnzChek); assay type: biochemical; details: purified PP1c 30 nM, 30 minutes at 4° C.
Method: Purified PP1c (30 nM) was incubated in 50 mM Tris pH 7, 1.5 mM EGTA, 3 mM MnCl2, 0.01% Brij-35, 0.15% β-mercaptoethanol with indicated concentrations of CalyculinA, GBZ, Sal003, Sephin1 and TST3 for 30 minutes at 4° C. Residual activity of PP1c was then measured using the EnzChek Phosphatase Assay Kit (Thermo Fisher Scientific) according to the supplier's instructions.

PPP1R15B-PP1 complex = biological target: T2, PPP1R15B-PP1 complex (Homo sapiens, UniProt Q5SWA1); assay: SPR steady-state binding to R15B-PP1c holophosphatase on streptavidin chip
T2 construct: 340-698 of PPP1R15B were His-tagged and cloned into pMAL-c5x; made in house; host or cells: R15B fragment: E. coli BL21-Gold; BAP-PP1γ: Sf9 insect cells (baculovirus)
Method: (§1) The streptavidin coated surface was activated by 1 min injection with a solution of 50 mM NaOH and 1 M NaCl. Biotin-PP1 was diluted in the running buffer (50 mM Tris pH 7.5, 100 mM NaCl, 0.1 mM EGTA, 1 mM MnCl2, 0.05% Tween 20) and injected at approximately 300 nM concentration directly to streptavidin coated surface for 100 sec or to reach immobilization level of biotin-PP1 corresponding to ˜7000 RU. A blank immobilization was performed for one of the SA sensor chip surface to use as a reference.
(§2) With minor deviations, the same procedure and conditions were used in all binding experiments. Small molecules were stored as 50 mM stock solutions in 100% DMSO. Prior to determining binding constants, serial dilutions of either 12 or 8 concentrations of the compounds were prepared in the running buffer in a 96-well plate. […] Then, without regenerating the surface, the compound dilution series was injected onto the surface of the chip Sensorgrams were analyzed using the Biacore T200 evaluation software and the binding constants determined based on a steady-state model. Kinetic experiments are carried out using different concentrations of the compound and their respective equilibrium binding levels determined.
(§3) Surface Plasmon Resonance (SPR) was used to measure the binding affinity of compounds to the PPP1R15A/B-PP1 phosphatase complex. […]

PPP1R15A-PP1 complex = biological target: T3, PPP1R15A-PP1 complex (Homo sapiens, UniProt O75807); assay: SPR steady-state binding to R15A-PP1c holophosphatase on streptavidin chip
T3 construct: the cDNAs encoding amino acids 325-636 of PPP1R15A; made in house; host or cells: R15A fragment: E. coli BL21-Gold; BAP-PP1γ: Sf9 insect cells (baculovirus)
Method: as §1, §2, §3

PP1c [2] = biological target: T1, PP1c; assay: SPR binding to PP1c alone immobilized on chip
Method: The streptavidin coated surface was activated by 1 minute injection with a solution of 50 mM NaOH and 1 M NaCl three times at a flow rate of 10 μl/min. bio-GBZ or bio-PP1c was diluted in the running buffer (50 mM Tris pH 7.5, 100 mM NaCl, 0.1 mM EGTA, 0.05% Tween 20, 0.1% DMSO) and injected at approximately 300 nM concentration at a flow rate of 10 μl/min directly to streptavidin coated surface to reach immobilization level of bio-GBZ or bio-PP1c corresponding to ˜200 and 6000 RU, respectively. A blank immobilization was performed for one of the SA sensor chip surface to use as a reference.
With minor deviations, the same procedure and conditions were used in all binding experiments. Small molecules were stored as 50 mM stock solutions in 100% DMSO. Prior to determining binding constants, serial dilutions of either 12 or 8 concentrations of the compounds were prepared in the running buffer in a 96-well plate. […] This was followed by 1 minute stabilization period, to wash off any unspecific binding. Then, without regenerating the surface, the compound dilution series was injected onto the surface of the chip at a flow rate of 30 μl/min for 1 minute, followed by 2 minutes dissociation time. […]
Kinetic experiments are carried out using different concentrations of the compound and their respective equilibrium binding levels determined.

NC(N)=N/N=C/c1ccccc1Cl [Sephin1]
inhibition of PP1c in enzymatic assay (PP1c [1]): does not inhibit PP1c
binding to R15B-PP1c (in words) (PPP1R15B-PP1 complex): not or weakly
Kd (PPP1R15B-PP1 complex; steady-state affinity): 23 µM
binding to R15A-PP1c (in words) (PPP1R15A-PP1 complex): strongly bound
Kd (PPP1R15A-PP1 complex; steady-state affinity): 0.786 µM
binding to PP1c alone (in words) (PP1c [2]): not to PP1c alone
